Species on record: Mus musculus
Experiment: Protective index, ratio of TD50 for neurotoxicity in CF1 albino mouse to ED50 for inhibition of 6Hz electric shock-induced seizures in CF1 albino mouse
Type: functional

With `CC[C@@H](C(N)=O)N1CCCC1=O` [LEVETIRACETAM] the PI was over 26.
